Measured values as given in patent US11447485B2, “Class of bifunctional compounds with quanternary ammonium salt structure” (Beijing Showby Pharmaceutical Co., Ltd., priority 2016, dated 2022).
pKi: −log10 of the molar value.

Amino acid sequences for entries named in this document (tags omitted).
UniProt P20309, whole entry: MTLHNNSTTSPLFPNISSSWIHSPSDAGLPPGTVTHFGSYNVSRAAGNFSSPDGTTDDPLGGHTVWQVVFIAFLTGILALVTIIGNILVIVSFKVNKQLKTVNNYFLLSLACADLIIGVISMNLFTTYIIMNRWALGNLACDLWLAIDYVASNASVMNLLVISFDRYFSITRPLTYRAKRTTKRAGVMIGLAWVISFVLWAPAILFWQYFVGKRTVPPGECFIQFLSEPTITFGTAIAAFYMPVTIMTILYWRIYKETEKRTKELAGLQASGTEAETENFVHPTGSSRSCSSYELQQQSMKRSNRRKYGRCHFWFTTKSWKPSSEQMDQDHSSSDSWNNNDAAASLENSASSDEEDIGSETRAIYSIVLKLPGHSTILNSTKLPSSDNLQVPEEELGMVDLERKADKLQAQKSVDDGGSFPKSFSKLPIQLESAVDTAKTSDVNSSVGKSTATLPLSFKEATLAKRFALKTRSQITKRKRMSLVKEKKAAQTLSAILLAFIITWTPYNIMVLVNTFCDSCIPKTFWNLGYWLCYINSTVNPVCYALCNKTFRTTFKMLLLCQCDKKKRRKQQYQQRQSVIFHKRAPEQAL
UniProt P11229, whole entry: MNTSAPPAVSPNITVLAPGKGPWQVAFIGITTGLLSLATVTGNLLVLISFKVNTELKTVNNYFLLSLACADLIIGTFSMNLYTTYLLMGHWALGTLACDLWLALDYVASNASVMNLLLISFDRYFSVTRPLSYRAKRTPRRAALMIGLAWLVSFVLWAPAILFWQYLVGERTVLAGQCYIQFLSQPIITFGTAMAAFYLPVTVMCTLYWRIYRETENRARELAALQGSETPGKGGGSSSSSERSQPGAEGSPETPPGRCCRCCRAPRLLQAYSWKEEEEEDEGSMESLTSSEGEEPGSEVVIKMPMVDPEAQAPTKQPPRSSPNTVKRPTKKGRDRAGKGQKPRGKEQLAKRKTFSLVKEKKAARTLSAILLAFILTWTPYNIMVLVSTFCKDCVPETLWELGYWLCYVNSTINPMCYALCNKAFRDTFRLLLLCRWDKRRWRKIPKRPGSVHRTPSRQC
UniProt P08172, whole entry: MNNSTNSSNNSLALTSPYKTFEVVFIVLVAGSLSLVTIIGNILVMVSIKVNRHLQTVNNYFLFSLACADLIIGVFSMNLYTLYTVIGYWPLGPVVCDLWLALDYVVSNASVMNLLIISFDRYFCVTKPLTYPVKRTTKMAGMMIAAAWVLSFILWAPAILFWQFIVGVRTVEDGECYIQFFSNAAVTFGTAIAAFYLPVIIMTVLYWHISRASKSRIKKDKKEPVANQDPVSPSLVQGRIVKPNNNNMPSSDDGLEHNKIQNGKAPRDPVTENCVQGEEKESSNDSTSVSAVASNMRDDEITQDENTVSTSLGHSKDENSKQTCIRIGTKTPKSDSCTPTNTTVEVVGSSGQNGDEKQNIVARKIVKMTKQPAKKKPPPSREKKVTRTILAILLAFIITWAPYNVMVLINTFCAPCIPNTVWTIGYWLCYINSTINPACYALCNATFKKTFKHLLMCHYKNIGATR
UniProt P08588, whole entry: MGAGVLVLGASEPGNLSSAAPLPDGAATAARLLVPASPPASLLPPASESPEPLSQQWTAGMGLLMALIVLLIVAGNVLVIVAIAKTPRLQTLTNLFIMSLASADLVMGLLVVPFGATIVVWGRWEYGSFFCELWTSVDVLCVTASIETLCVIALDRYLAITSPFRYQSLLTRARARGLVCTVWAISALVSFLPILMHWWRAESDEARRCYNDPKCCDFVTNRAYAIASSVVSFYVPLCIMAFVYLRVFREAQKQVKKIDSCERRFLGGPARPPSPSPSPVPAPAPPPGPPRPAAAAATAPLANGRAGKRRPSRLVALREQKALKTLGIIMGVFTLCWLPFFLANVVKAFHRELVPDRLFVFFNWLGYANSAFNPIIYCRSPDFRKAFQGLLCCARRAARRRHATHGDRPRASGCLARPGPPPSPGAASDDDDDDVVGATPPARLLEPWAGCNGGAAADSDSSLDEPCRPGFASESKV

Columns and labels:
[1] = target: human recombinant M3 receptor (Homo sapiens, UniProt P20309); experiment: [3H]-QNB competitive binding, CHOm3 cell membranes; settings: tested form: Br
[2] = target: human recombinant β2 adrenoceptor (Homo sapiens, UniProt P07550); experiment: cAMP accumulation, human recombinant β2 adrenoceptor; type: cell-based; settings: tested form: Br
[3] = target: human recombinant M1 receptor (Homo sapiens, UniProt P11229); experiment: [3H]-QNB competitive binding, CHOm1 cell membranes; settings: tested form: Br
[4] = target: human recombinant M2 receptor (Homo sapiens, UniProt P08172); experiment: [3H]-QNB competitive binding, CHOm2 cell membranes; settings: read-out: hM2Ki; 3H-QNB 1.81 nmol/L, 25° C., 5 h; tested form: Br
[5] = test system: tracheal smooth muscle of guinea pig; experiment: Relaxation of CCh-induced constriction of isolated guinea pig tracheal smooth muscle (Experimental Example 1); settings: in vitro, tested form: Br
[6] = target: human recombinant β1 adrenoceptor (Homo sapiens, UniProt P08588); experiment: cAMP accumulation, human recombinant β1 adrenoceptor; type: cell-based; settings: read-out: EC50 (β1) nM, 10 nM ICI118551 added, HEK293 cells, tested form: Br

O=C1COc2c(cc(O)cc2C(O)CNCCOc2ccc(OCC[N+]34CCC(CC3)C(OCC(O)(c3ccccc3)C3CCCC3)C4)cc2)N1 (stereo not drawn)
M1/M3 ([1]; Mx/My = Ki(y)/Ki(x)): 0.4803 | M2/M3 ([1]; Mx/My = Ki(y)/Ki(x)): 0.4877 | pKi ([1]; read-out: hM3Ki, 3H-QNB 1.042 nmol/L, 25° C., 5 h): 9.20 | EC50 ([2]; read-out: EC50 (β2) nM, cAMP accumulation): 1.2 nM | sel (β1/β2) [2]: 9.8 | M1/M2 ([3]; Mx/My = Ki(y)/Ki(x)): 0.9849 | pKi ([3]; read-out: hM1Ki, 3H-QNB 1.042 nmol/L, 25° C., 5 h): 8.88 | pKi [4]: 8.89 | Onset time (min) ± SD ([5]; CCh 3 × 10^−6 mol/L): 6.85 ± 0.35 min | Time for eliminating inhibition effect (min) ([5]; CCh 3 × 10^−6 mol/L): more than 300 min | EC50 ([5]; read-out: EC50 (μM) ± SD, constriction induced by CCh 3 × 10^−6 mol/L): 0.0379 µM | EC50 [6]: 12 nM
